Source: US9730931B2, “Pyrimidine FGFR4 inhibitors” (priority 2013, dated 2017)

What was measured:
[1] = test system: Purified, recombinant FGFR4; conditions: 10 μM compound
[2] = test system: HEP3B hepatocellular carcinoma xenograft; experiment: In vivo efficacy, HEP3B tumor xenograft; parameters: species or system nude mice
[3] = test system: HUH7 hepatocellular carcinoma xenograft; experiment: In vivo efficacy, HUH7 tumor xenograft; parameters: species or system nude mice
[4] = test system: JHH7 hepatocellular carcinoma xenograft; experiment: In vivo efficacy, JHH7 tumor xenograft

Row | SMILES | Observed mass of modified, intact FGFR4 ([1]; direct injection, intact protein) | Observed mass of peptide-ligand adduct ([1]; tryptic digest, modified peptide) | Sensitivity of the tumor model to the compound [2] | Sensitivity of the tumor model to the compound [3] | Sensitivity of the tumor model to the compound [4] | Tumor response ([4]; all dose levels)
1 | C=CC(=O)Nc1ccccc1Nc1cc(N(C)C(=O)Nc2c(Cl)c(OC)cc(OC)c2Cl)ncn1 [Example 100, N-(2-{6-[3-(2,6-dichloro-3,5-dimethoxy-phenyl)-1-methyl-ureido]-pyrimidin-4-ylamino}-phenyl)-acrylamide] | 35836.1 Da | 3134.48 Da | – | – | – | –
2 | C=CC(=O)Nc1cc(N2CCN(CC)CC2)ccc1Nc1cc(N(C)C(=O)Nc2c(Cl)c(OC)cc(OC)c2Cl)ncn1 [Example 108, N-(2-(6-(3-(2,6-Dichloro-3,5-dimethoxyphenyl)-1-methylureido)-pyrimidin-4-ylamino)-5-(4-ethylpiperazin-1-yl)-phenyl)-acrylamide] | – | – | most sensitive | intermediate sensitivity | least sensitive | Progressive Disease in all dose levels tested
